Compound activity deposited in PubChem BioAssay by Broad Institute.
S100A4 inh HTS: S100A4-myosin IIA interaction inhibition; AID 652163; hit rate 0.14% among 360,000; S100A4/TAMRA-MyoIIA peptide fluorescence polarization; inhibition, % at 10.7 µM;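 active = mean inhibition of at least 70% across replicates, with every replicate also reaching that level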
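assay system = human S100A4 monomer with TAMRA-labelled myosin IIA peptide | also added = labelled myosin peptide probe, 5 nM | incubation = 5 min between mix addition and reading | control set = DMSO and TFP controls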
UUG fidelity: alters start codon recognition fidelity in yeast | S. cerevisiae UUG-firefly luciferase reporter, luminescence/redox ratio | activity score, % at 18.7 µM | hit rate 0.13% among 350,000 | AID 602363;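 active means replicate mean at a twofold rise or more, about +100% in these data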;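 further: firefly luciferase made from a UUG start codon reports start codon fidelity; reporter light over untreated wells divided by growth signal over untreated wells; some hits fall short of that in this replicate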
PDI turbidity: blocks human protein disulfide isomerase activity. inhibition, % at 10 µM. hit rate 0.052% among 350,000. P07237. PDI insulin aggregation turbidity, A650, 90 min;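 active = mean inhibition across replicates of 30% or more, whatever share of single replicates reach that level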
SIRT5 inh: sirtuin-5 (human) deacylase inhibition; hit rate 1.1% among 330,000; Purified SirT5, succinyl-peptide AMC, trypsin-coupled fluorescence; inhibition, % at 15 µM; Q9NXA8; in the data active = inhibition above about 15%
FGF22 binding: binders of recombinant human FGF22 by thermal shift | activity (Tm shift, normalised), % at 9.99 µM | Q9HCT0 | hit rate 1.5% among 340,000 | SYPRO orange fluorescence; percent of sucrose octasulfate shift, DMSO zero;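 active = mean Tm shift, scaled 0 neutral to 100 positive control, at about 1.3% or above, every replicate too, limit read from the data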
ERp5 block: inhibitors of human ERp5; ERp5 insulin aggregation, absorbance 650 nm, 90 min; inhibition, % at 9.99 µM; hit rate 0.05% among 350,000; AID 651711;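 active = mean replicate inhibition above about 25%, with every replicate also reaching it, limit read from the data, passing the limit was not always enough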
Numbers without * were called inactive; . = no result. Hits are enriched below; roughly 2.2% of the tested compounds scored in any of these assays.

SMILES	S100A4 inh HTS	UUG fidelity	PDI turbidity	SIRT5 inh	FGF22 binding	ERp5 block
CC(=O)Nc1cccc(NC(=O)Nc2cccc(F)c2)c1	-1.1	.	-0.5	-1.7	44.6*	2.3
O=C(Nc1cccc(F)c1)Nc1cccc(Cl)c1	-3.5	-5.6	6.4	-4.1	0.1	5.1
CC(=O)OC1CCC2C3CCC4=CC(=O)CCC4(C)C3CCC2(C)[C@]1(C)O (stereo partly drawn)	0.6	-4.9	4.6	-3.2	0.2	0.1
CC12CC(O)C3C(CCC4=CC(=O)CCC43C)C1CCC2=CCO (stereo not drawn)	-0.7	.	9.2	.	43.0*	3.1
C[C@]12CCC(=O)C=C1CC[C@@H]1[C@@H]2[C@@H](O)C[C@]2(C=O)[C@@H](C(=O)CO)CC[C@@H]12	6.1	-11.2	1.2	-4.5	0.3	4.3
CC(=O)OC1CC2(C)C(C(C)=O)CCC2C2CCC3=CC(=O)CCC3(C)C12 (stereo not drawn)	-1.3	9.7	-0.7	.	43.3*	0.6
O=C(Nc1ccccc1)N1C[C@H]2[C@@H](c3ccccc31)[C@H](CO)N2Cc1ccccc1Cl	-0.8	8.6	.	-2.4	-0.1	1.0
Cc1noc(C)c1S(=O)(=O)Nc1ccc2c(c1)C(=O)N([C@@H](C)CO)C[C@@H](C)[C@@H](CN(C)C(=O)Nc1ccccc1)OCCCC[C@@H](C)O2	-19.0	-15.4	.	-1.2	-0.5	1.8
S=c1[nH]nc(SCc2ccccc2)c2[nH]cnc12	3.2	-20.3	-99.6	.	0.2	3.5
CCCCSc1n[nH]c(=S)c2nc[nH]c12	-0.8	-14.3	1.2	.	43.0*	-1.6
O=C(C[C@@H]1C[C@H]2c3cc(NS(=O)(=O)c4ccc(F)cc4)ccc3O[C@H]2[C@H](CO)O1)NCc1ccc(Cl)cc1	-7.1	4.5	.	2.1	-0.2	0.3
CCC(NC(=O)NCc1ccccc1)(C(F)(F)F)C(F)(F)F	1.6	.	-14.0	30.5*	-0.2	2.6
CO[C@H](CN(C)S(=O)(=O)c1ccc(Cl)cc1)[C@H](C)CN([C@@H](C)CO)S(=O)(=O)c1cccc(Cl)c1	-2.3	.	.	3.6	-0.1	0.4
CSc1ncccc1C(=O)OCC(=O)NCc1ccc2c(c1)OCO2	0.9	.	-10.1	-0.7	43.2*	5.3
O=C(COC(=O)c1cccnc1Cl)c1ccccc1	2.9	-35.5	0.2	-3.7	-0.2	-12.2
COc1cc(OC)cc(C(=O)OCC(=O)NCc2ccc3c(c2)OCO3)c1	6.7	.	2.6	-0.1	43.8*	0.8
O=C(COC(=O)c1ccc(O)cc1)NCc1ccc2c(c1)OCO2	-5.4	-0.9	8.4	-5.0	0.5	-7.2
O=C(COC(=O)c1cccnc1Cl)c1ccc(F)cc1	5.2	.	0.1	-2.0	42.9*	0.1
Cc1ccc(CNC(=O)COC(=O)c2cccnc2Cl)cc1	4.1	-4.7	-4.4	.	43.3*	0.2
O=C(COC(=O)c1cccnc1Cl)NCCc1ccccc1	-3.2	0.5	-7.4	1.1	-0.3	1.7
Cc1noc(C)c1NC(=O)Nc1ccc2c(c1)CC(=O)N([C@@H](C)CO)C[C@@H](C)[C@H](CN(C)S(=O)(=O)c1ccc(F)cc1)O2	7.8	-1.6	.	-4.4	0.1	3.0
O=C(C[C@H]1C=C[C@@H](NC(=O)CN2CCOCC2)[C@@H](CO)O1)NCc1cccc(F)c1	3.0	-7.6	.	-0.8	-0.1	0.9
Cn1c(=O)n(Cc2ccccc2F)c(=O)c2c1nc1n2CCN1Cc1ccco1	-1.1	11.3	-3.4	-2.6	43.0*	2.1
Cn1c(NCCCO)nc2c1c(=O)n(Cc1ccccc1F)c(=O)n2C	0.8	-1.8	-12.3	39.4*	.	2.5
COc1ccccc1Oc1nc2c(c(=O)n(Cc3ccccc3F)c(=O)n2C)n1C	.	-8.3	-8.9	.	.	.

Sorted by heavy-atom count (lowest first): some entries from above.
SMILES	S100A4 inh HTS	UUG fidelity	PDI turbidity	SIRT5 inh	FGF22 binding	ERp5 block
CC(=O)OC1CCC2C3CCC4=CC(=O)CCC4(C)C3CCC2(C)[C@]1(C)O (stereo partly drawn)	0.6	-4.9	4.6	-3.2	0.2	0.1
O=C(C[C@H]1C=C[C@@H](NC(=O)CN2CCOCC2)[C@@H](CO)O1)NCc1cccc(F)c1	3.0	-7.6	.	-0.8	-0.1	0.9
CO[C@H](CN(C)S(=O)(=O)c1ccc(Cl)cc1)[C@H](C)CN([C@@H](C)CO)S(=O)(=O)c1cccc(Cl)c1	-2.3	.	.	3.6	-0.1	0.4

Further structures follow:
SMILES	S100A4 inh HTS	UUG fidelity	PDI turbidity	SIRT5 inh	FGF22 binding	ERp5 block
Cn1c(=O)n(Cc2ccc(Cl)cc2)c(=O)c2c1nc1n2CCN1Cc1ccco1	.	1.2	3.5	.	.	.
C[C@H]1CN([C@@H](C)CO)C(=O)c2cc(-c3ccccc3F)cnc2O[C@H]1CN(C)C(=O)C1CC1	3.8	16.0	.	2.3	-0.1	3.7
COc1ccc2c3c(n(C)c2c1)[C@H](CO)N(C(=O)C1CC1)CC31CCN(C(=O)Nc2cccc(F)c2)CC1	3.8	.	.	2.1	-0.2	-2.9
COc1ccc(-[n+]2c(C)cc(/C=C3\Sc4ccccc4N3C)cc2C)cc1	0.8	.	3.9	25.8*	0.1	-5.4
COc1ccc(-c2ccc3c(c2)O[C@H](CN(C)C)[C@H](C)CN([C@H](C)CO)S3(=O)=O)cc1	-12.0	6.7	.	-8.4	0.0	3.2
COc1ccccc1S(=O)(=O)N[C@H]1CC[C@H](CCNC(=O)C2CCC2)O[C@H]1CO	2.8	2.2	.	0.1	0.0	-2.7
O=C(CN(C(=O)c1csnn1)c1cccc(F)c1)NCc1ccc2c(c1)OCO2	-0.1	-7.8	2.9	-2.4	42.9*	-1.2
O=C(CN(C(=O)c1csnn1)c1ccccc1F)NCc1ccc2c(c1)OCO2	-6.3	-5.1	1.4	-1.8	-0.2	1.5
C/C(=N\NC(=O)c1cccnc1)c1cc2ccccc2o1	7.0	.	0.6	-2.3	43.1*	-3.2
C/C(=N\NC(=O)C1COc2ccccc2O1)c1ccc(C)o1 (stereo not drawn)	.	.	-1.3	.	.	.
C/C(=N\NC(=O)c1ccncc1)c1cccc(NC(=O)c2ccc(C(C)(C)C)cc2)c1	0.6	-27.0	6.3	1.5	0.0	-12.1
C/C(=N\NC(=O)c1ccc(Br)cc1)c1cccc(NC(=O)c2cccnc2)c1	-2.0	.	-26.8	20.4*	0.0	-4.0
C/C(=N\NC(=O)C1COc2ccccc2O1)c1cc2ccccc2o1 (stereo not drawn)	3.0	39.6	-60.1	0.1	44.0*	1.8
CC(=O)N(C)C[C@H]1Oc2cc(-c3ccccc3F)ccc2S(=O)(=O)N([C@@H](C)CO)C[C@@H]1C	-10.4	-1.6	.	-5.5	0.1	-0.2
C[C@@H]1CN([C@@H](C)CO)C(=O)c2cc(NS(=O)(=O)c3ccc(F)cc3)ccc2O[C@@H](C)CCCCO[C@@H]1CN(C)C(=O)c1ccccc1	-1.2	3.8	.	1.7	0.4	-3.4
O=S(=O)(NC1=NCCC1)c1cccc(NS(=O)(=O)c2ccc(F)c(Cl)c2)c1	-2.2	-3.2	-2.3	-0.9	0.0	-2.7
Cc1ccc([N+](=O)[O-])cc1S(=O)(=O)Nc1cccc(S(=O)(=O)NC2=NCCC2)c1	0.7	-17.2	-3.6	.	44.5*	2.0
COc1cccc(C#Cc2ccc([C@H]3[C@@H](CO)N(C(=O)C4CCCCC4)[C@H]3C#N)cc2)c1	-6.8	-3.4	.	-6.9	0.0	1.0
CNC(=O)CSc1nc2c([nH]c3ccccc32)c(=O)n1CCOC	3.5	.	10.7	2.2	43.9*	-2.6
Cc1c(C)n2c(SCC(=O)Nc3ccc4c(c3)OCCO4)nnc2[nH]c1=O	-6.4	-20.8	-4.5	-4.8	43.6*	2.5
Cc1nnc(SCC(=O)NC(=O)Nc2ccc3c(c2)OCCO3)s1	-0.9	.	1.3	-3.7	43.4*	0.3

Three compounds from above, arranged by the value under PDI turbidity, high to low.
Molecule	PDI turbidity
CNC(=O)CSc1nc2c([nH]c3ccccc32)c(=O)n1CCOC	10.7
Cn1c(=O)n(Cc2ccc(Cl)cc2)c(=O)c2c1nc1n2CCN1Cc1ccco1	3.5
C/C(=N\NC(=O)c1ccc(Br)cc1)c1cccc(NC(=O)c2cccnc2)c1	-26.8
